For the assay, the system named is Purine nucleoside phosphorylase. Description: Binding affinity against Purine Nucleoside Phosphorylase.

Consider one molecule from ChEMBL document CHEMBL1135481, “SMall Molecule Growth 2001 (SMoG2001): an improved knowledge-based scoring function for protein-ligand interactions” (J Med Chem, 2002).

Molecules are shown by their SMILES.

As for `O=P(O)(O)OC[C@H]1O[C@@H](n2cnc3cncnc32)[C@H](O)[C@@H]1O`, the Log Kd is -8.96.
